Amino acid sequences for entries named in this document (tags omitted). A change or cut given only in a name is not applied to a line headed by its entry.
UniProt P41146: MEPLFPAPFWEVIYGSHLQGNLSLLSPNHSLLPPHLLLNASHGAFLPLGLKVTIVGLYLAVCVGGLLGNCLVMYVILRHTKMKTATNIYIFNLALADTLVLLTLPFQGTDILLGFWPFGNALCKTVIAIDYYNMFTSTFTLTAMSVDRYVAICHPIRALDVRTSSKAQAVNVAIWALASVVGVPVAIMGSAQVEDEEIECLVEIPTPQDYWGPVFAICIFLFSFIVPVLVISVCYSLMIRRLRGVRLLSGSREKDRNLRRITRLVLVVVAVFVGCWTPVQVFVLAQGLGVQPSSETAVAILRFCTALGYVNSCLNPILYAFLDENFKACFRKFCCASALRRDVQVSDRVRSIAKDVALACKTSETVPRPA
UniProt P35372, whole entry, looked up: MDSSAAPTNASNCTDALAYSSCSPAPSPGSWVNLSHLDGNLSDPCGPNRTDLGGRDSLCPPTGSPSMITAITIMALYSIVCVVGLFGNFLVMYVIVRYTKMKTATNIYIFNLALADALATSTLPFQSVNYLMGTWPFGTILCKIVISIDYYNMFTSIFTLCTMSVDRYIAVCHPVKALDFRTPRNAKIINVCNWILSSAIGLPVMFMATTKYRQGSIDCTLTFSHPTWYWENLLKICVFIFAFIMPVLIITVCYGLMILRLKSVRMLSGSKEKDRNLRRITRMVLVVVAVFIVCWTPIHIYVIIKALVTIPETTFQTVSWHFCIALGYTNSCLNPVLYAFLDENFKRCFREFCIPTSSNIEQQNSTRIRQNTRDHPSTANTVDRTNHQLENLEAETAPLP

In patent US10793556B2, “8-amino-2-oxo-1,3-diaza-spiro-[4.5]-decane derivatives” (dated 2020):

Experiments:
[1] = biological target: human nociceptin/orphanin FQ peptide (hNOP) receptor (Homo sapiens (Human), UniProt P41146); assay: hNOP receptor binding assay (SPA, [leucyl-3H]nociceptin); settings: read-out: hNOP Ki
[2] = biological target: human mu-opioid peptide (hMOP) receptor (Homo sapiens (Human), UniProt P35372); assay: hMOP receptor binding assay (SPA, [3H]naloxone); settings: for Ki: read-out: hMOP Ki

SMILES: CN(C)[C@]1(c2ccccc2)CC[C@]2(CC1)CN(CCC1(O)COC1)C(=O)N2CC1CCC1
- Ki [1]: 1 nM
- Ki [2]: 63 nM

SMILES: CN(C)[C@]1(c2ccccc2)CC[C@]2(CC1)CN(CC(C)(C)N1CCCC1=O)C(=O)N2CC1CC1
- Ki [1]: 10 nM
- Ki [2]: 255 nM

SMILES: CN(C)[C@]1(c2ccccc2)CC[C@]2(CC1)CN(CC(C)(C)N1C(=O)CCC1=O)C(=O)N2CC1CC1
- Ki [1]: 118 nM

SMILES: CN[C@]1(c2ccccc2)CC[C@]2(CC1)CN(CC(C)(C)C#N)C(=O)N2
- Ki [1]: 690 nM
- hMOP % inhibition at 1 μM [2]: 4%@1 μM

SMILES: CN(C)[C@]1(c2ccccc2)CC[C@]2(CC1)CN(CCS(C)(=O)=O)C(=O)N2
- Ki [1]: 345 nM
- Ki [2]: 8530 nM

SMILES: CN(C)[C@]1(c2ccccc2)CC[C@]2(CC1)CN(CC(C)(C)S(C)(=O)=O)C(=O)N2CC1CCC1
- Ki [1]: 0.4 nM
- Ki [2]: 76 nM

SMILES: CN(C)[C@]1(c2ccccc2)CC[C@]2(CC1)CN(C1CCN(c3ccccc3)CC1)C(=O)N2CC1CC1
- Ki [1]: 3 nM
- Ki [2]: 1050 nM

SMILES: CN(C)[C@]1(c2ccccc2)CC[C@]2(CC1)CN(CC1(N)CC1)C(=O)N2CC1CC1
- Ki [1]: 5 nM
- Ki [2]: 495 nM

SMILES: CN(C)[C@]1(c2ccccc2)CC[C@]2(CC1)CN(CCS(C)(=O)=O)C(=O)N2CC1CC1
- Ki [1]: 11 nM
- Ki [2]: 245 nM

SMILES: CN(C)[C@]1(c2ccccc2)CC[C@]2(CC1)CN(CC(C)(C)O)C(=O)N2CC1CC1
- Ki [1]: 54 nM
- Ki [2]: 1870 nM

SMILES: CN(C)[C@]1(c2ccccc2)CC[C@]2(CC1)CN(C1CCNCC1)C(=O)N2CC1CC1
- Ki [1]: 26 nM
- Ki [2]: 1300 nM

SMILES: CC(=O)N1C[C@]2(CC[C@](c3ccccc3)(N(C)C)CC2)NC1=O
- Ki [1]: 119 nM
- Ki [2]: 1430 nM

SMILES: Cc1ccc(S(=O)(=O)N2C(=O)NC[C@]23CC[C@](c2ccccc2)(N(C)C)CC3)cc1
- Ki [1]: 815 nM
- Ki [2]: 185 nM

SMILES: CN(C)[C@]1(c2ccccc2)CC[C@]2(CC1)CN(CC1CCOCC1)C(=O)N2CC1(O)CCC1
- Ki [1]: 26 nM
- Ki [2]: 206 nM

SMILES: CN(C)[C@]1(c2ccccc2)CC[C@@]2(CC1)CN(CCS(C)(=O)=O)C(=O)N2CC1(O)CCC1
- Ki [1]: 395 nM
- Ki [2]: 96 nM

SMILES: CC(=O)N1C(=O)NC[C@]12CC[C@](c1ccccc1)(N(C)C)CC2
- hMOP % inhibition at 1 μM [2]: 15%@1 μM

SMILES: CN(C)[C@]1(c2ccccc2)CC[C@]2(CC1)CN(CC1(O)CCOCC1)C(=O)N2CC1(O)CCC1
- Ki [1]: 19 nM
- Ki [2]: 1060 nM

SMILES: CN(C)[C@]1(c2ccccc2)CC[C@]2(CC1)CN(C1CCN(c3ccccc3)CC1)C(=O)N2
- Ki [1]: 145 nM
- Ki [2]: 4150 nM

SMILES: CN(C)[C@]1(c2ccccc2)CC[C@]2(CC1)CN(C1CCN(c3ccnnc3)CC1)C(=O)N2CC1CC1
- Ki [1]: 36 nM
- Ki [2]: 330 nM
